# Literature values, collected in patent US12077568B2, “Engineered active single-polypeptide chain insulin analogs” (University of Houston System, priority 2018, dated 2024).
# Settings: cited from earlier work
substance,measurement,setting,value
insulin,time to degradation after initial release into circulation,endogenously produced by beta cells,within about one hour
same,half-life in circulation,"free insulin in circulation, in vivo",4 to 6 min
